Source: article PMC10615923
Several values for one entry are separate records, joined by “and”; a condition that tells them apart may be missing. Equal entries are not always repeated. Some compounds may have been tested in ways that are not shown here.

Sequences of proteins named here, by UniProt entry; tags and fusion partners are left off. Residues count along the entry.
UniProt P16662, 24-529 limits assumed: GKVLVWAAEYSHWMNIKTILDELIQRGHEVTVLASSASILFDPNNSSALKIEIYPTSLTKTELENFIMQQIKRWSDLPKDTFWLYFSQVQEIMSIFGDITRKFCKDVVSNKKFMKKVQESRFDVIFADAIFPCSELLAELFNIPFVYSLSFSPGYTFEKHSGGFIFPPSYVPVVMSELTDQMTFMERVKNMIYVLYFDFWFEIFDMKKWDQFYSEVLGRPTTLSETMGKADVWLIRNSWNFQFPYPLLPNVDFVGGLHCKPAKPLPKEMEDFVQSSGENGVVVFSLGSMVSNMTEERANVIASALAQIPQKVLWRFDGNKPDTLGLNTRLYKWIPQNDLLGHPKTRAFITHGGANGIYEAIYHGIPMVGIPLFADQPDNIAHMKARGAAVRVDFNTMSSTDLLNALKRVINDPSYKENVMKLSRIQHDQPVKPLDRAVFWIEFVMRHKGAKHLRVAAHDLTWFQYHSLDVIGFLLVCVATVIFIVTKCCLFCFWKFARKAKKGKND
UniProt P22309, 26-533 limits assumed: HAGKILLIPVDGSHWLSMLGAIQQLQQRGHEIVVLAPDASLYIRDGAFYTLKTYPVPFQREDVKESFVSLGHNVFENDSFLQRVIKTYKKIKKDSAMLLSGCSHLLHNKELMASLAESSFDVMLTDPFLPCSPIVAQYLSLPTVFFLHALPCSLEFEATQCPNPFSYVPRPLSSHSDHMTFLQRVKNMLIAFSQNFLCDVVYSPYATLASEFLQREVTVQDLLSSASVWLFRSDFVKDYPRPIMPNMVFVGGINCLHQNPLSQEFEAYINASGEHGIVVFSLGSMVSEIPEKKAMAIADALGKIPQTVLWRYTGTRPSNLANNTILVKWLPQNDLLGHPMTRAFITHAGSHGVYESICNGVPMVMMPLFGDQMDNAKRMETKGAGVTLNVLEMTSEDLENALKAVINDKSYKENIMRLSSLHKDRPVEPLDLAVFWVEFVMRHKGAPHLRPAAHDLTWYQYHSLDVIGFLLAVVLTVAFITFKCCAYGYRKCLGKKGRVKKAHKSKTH
UniProt P33261, whole entry: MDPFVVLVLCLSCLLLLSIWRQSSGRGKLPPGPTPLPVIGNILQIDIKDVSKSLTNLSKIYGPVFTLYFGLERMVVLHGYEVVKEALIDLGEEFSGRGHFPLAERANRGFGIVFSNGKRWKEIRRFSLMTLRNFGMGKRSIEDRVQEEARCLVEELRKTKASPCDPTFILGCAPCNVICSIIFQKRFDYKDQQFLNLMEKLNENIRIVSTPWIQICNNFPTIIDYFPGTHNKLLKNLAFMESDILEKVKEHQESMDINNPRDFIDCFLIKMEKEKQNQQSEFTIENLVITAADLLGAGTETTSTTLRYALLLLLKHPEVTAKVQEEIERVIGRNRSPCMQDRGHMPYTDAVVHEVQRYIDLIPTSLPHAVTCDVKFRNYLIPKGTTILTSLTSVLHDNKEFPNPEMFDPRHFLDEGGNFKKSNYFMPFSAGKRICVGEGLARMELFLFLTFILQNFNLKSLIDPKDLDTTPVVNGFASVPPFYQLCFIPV
UniProt P49326, whole entry: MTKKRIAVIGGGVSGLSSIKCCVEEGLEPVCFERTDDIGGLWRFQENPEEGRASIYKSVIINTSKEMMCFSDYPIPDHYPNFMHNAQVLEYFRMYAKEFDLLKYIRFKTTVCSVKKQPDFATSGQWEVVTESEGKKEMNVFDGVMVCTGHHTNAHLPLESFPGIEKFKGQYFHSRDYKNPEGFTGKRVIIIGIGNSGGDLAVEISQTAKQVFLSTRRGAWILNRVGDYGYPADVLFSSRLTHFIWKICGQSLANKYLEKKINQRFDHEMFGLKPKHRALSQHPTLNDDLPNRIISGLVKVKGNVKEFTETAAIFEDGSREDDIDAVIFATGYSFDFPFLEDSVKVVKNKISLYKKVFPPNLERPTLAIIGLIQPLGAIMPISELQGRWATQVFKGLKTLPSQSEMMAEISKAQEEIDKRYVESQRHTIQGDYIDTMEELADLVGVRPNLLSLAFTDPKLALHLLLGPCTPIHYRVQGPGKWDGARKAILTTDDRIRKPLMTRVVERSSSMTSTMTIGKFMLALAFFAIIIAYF
UniProt P05177, whole entry: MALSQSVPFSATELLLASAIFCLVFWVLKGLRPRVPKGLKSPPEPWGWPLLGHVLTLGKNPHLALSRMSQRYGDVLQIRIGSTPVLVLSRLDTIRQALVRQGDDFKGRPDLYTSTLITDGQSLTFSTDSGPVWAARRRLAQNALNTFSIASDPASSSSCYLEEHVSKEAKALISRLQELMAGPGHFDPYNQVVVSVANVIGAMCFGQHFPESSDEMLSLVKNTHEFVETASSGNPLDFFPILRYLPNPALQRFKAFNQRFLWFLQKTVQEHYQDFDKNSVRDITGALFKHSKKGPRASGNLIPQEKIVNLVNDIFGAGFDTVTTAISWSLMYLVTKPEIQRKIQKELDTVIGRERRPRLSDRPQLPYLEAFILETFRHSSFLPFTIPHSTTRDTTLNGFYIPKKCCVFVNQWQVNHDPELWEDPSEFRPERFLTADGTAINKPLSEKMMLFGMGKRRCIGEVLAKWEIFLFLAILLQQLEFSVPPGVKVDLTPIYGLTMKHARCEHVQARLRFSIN
UniProt P08684, whole entry: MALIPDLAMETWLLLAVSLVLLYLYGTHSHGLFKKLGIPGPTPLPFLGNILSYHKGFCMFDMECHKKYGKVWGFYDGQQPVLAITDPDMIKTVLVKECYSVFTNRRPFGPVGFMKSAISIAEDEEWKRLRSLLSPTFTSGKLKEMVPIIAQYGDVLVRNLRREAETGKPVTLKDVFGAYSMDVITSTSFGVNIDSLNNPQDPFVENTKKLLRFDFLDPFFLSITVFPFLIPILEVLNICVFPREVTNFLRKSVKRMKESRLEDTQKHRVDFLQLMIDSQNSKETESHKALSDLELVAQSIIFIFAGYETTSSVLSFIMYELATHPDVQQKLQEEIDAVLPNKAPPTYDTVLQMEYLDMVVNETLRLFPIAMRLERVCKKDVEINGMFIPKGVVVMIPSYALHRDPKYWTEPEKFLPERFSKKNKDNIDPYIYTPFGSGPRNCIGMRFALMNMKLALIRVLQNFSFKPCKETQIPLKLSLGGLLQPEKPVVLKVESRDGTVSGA
UniProt P31513, whole entry: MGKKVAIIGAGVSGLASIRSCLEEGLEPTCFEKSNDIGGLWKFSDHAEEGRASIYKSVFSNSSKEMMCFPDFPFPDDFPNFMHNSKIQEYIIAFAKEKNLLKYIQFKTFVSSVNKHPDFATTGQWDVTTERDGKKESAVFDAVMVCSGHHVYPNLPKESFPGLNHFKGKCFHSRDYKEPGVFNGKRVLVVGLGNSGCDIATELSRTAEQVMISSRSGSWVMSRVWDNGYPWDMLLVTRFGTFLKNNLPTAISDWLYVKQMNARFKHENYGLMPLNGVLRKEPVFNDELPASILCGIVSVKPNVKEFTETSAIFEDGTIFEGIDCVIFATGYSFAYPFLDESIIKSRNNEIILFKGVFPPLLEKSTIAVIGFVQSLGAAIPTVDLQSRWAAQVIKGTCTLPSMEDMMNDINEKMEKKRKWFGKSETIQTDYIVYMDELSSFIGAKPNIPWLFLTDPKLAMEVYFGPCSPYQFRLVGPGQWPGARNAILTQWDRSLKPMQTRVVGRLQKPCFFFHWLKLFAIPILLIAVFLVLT
UniProt P10635, whole entry: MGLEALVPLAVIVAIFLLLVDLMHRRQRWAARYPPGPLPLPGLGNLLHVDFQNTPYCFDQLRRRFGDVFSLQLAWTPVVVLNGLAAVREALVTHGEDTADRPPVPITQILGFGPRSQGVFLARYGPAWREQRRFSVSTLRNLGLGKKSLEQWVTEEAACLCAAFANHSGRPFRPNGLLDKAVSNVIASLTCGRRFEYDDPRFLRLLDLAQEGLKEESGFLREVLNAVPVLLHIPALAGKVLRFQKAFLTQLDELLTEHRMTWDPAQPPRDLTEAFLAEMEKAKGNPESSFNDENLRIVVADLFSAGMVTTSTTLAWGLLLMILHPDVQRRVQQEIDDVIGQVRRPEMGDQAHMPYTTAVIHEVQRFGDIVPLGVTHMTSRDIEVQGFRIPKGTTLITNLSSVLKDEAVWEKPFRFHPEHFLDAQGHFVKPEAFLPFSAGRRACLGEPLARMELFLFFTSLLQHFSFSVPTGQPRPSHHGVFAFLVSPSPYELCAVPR
UniProt P20813, whole entry: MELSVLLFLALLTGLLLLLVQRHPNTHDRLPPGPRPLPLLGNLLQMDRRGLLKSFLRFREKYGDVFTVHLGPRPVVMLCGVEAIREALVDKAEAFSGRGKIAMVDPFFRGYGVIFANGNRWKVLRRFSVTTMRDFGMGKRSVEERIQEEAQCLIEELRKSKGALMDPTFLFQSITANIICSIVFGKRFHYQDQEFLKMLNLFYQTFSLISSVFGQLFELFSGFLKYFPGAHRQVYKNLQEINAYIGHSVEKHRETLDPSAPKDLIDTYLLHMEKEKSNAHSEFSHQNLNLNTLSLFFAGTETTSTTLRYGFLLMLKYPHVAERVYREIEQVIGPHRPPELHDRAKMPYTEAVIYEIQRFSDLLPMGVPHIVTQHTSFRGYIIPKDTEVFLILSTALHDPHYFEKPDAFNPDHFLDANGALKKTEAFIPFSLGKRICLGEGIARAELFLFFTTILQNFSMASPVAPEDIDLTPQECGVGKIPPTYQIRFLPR
UniProt P22310, 29-534 limits assumed: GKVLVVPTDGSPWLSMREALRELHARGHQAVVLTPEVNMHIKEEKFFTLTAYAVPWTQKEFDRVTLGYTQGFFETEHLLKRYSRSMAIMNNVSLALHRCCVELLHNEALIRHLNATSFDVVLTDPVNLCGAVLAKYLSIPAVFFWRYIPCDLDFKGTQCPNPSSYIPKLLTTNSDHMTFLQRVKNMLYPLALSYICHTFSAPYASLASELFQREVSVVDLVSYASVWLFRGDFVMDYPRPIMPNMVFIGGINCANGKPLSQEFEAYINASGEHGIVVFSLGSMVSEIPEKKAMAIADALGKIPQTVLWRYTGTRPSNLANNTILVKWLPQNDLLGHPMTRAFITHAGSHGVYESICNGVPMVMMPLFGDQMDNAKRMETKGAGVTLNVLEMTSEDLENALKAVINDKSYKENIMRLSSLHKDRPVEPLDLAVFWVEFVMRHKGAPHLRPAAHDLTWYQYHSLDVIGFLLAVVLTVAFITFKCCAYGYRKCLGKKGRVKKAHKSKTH
UniProt O60656, 26-530 limits assumed: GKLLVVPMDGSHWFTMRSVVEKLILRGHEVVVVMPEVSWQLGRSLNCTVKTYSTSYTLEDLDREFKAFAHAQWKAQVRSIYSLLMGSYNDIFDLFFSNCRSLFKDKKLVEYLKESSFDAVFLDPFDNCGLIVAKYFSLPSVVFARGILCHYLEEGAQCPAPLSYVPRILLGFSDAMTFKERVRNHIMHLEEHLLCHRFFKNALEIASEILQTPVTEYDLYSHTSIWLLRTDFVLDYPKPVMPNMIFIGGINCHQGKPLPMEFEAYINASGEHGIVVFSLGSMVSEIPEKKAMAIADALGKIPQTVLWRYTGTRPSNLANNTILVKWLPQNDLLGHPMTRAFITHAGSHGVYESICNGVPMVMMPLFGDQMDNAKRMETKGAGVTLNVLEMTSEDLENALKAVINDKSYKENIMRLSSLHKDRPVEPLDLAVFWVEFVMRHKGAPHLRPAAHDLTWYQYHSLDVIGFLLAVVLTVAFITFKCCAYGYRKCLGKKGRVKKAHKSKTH
UniProt P05181, whole entry: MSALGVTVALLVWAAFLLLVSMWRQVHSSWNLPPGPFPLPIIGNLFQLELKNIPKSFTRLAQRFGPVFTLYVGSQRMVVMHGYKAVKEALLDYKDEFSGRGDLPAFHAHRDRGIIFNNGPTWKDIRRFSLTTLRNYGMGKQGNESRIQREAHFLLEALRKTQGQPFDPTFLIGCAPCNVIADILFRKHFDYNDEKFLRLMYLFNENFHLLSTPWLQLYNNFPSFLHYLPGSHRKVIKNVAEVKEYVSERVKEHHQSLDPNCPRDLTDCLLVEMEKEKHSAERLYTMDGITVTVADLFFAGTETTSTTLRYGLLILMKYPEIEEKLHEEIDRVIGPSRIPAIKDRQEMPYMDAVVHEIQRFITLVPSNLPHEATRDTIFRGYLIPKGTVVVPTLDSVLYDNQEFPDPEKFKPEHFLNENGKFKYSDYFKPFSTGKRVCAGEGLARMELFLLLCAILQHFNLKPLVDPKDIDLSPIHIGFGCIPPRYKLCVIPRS
UniProt P19224, 27-532 limits assumed: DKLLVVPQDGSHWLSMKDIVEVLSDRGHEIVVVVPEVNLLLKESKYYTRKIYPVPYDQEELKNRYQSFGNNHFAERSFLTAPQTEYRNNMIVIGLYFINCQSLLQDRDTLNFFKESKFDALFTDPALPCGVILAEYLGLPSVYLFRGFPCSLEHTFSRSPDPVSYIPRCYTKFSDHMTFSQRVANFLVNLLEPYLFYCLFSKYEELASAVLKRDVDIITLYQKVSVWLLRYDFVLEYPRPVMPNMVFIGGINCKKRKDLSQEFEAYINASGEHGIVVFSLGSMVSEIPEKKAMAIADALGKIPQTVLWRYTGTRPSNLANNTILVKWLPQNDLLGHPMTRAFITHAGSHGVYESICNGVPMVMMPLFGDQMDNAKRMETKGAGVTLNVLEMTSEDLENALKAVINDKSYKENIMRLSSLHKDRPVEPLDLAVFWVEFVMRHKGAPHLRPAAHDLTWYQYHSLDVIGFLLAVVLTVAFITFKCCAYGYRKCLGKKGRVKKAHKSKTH

What was measured:
[1] = target: UGT2B7 (Homo sapiens, UniProt P16662); assay: TATP-OH glucuronidation by recombinant UGT2B7; settings: rUGT2B7 500 µg protein/mL, 10 µg/mL TATP-OH, 2 h
[2] = tested on: HLM; assay: Recombinant CYP/FMO study, HLM positive control incubation; settings: 10 min
[3] = tested on: HLM; assay: TATP-OH substrate depletion in HLM; settings: 1 µM TATP-OH, 1 mg/mL HLM
[4] = target: UGT1A1 (Homo sapiens, UniProt P22309); assay: TATP-OH glucuronidation by recombinant UGT1A1; settings: rUGT1A1 500 µg protein/mL, 10 µg/mL TATP-OH, 2 h
[5] = target: FMO1 (Homo sapiens, UniProt Q01740); assay: Incubation with recombinant FMO1 supersomes; settings: rFMO1, 10 µg/mL TATP-OH, 10 min
[6] = target: CYP2C19 (Homo sapiens, UniProt P33261); assay: Incubation with recombinant CYP2C19 bactosomes; settings: 10 min
[7] = target: FMO5 (Homo sapiens, UniProt P49326); assay: Incubation with recombinant FMO5 supersomes; settings: rFMO5, 10 µg/mL TATP-OH, 10 min
[8] = target: CYP1A2 (Homo sapiens, UniProt P05177); assay: Incubation with recombinant CYP1A2 bactosomes; settings: 10 min
[9] = tested on: HLM; assay: TATP hydroxylation (TATP-OH formation) in HLM with chemical inhibitors or heat; settings: HLM preheated for 5 min at 45 ℃; 37 ℃ = 100%
[10] = tested on: HLM; assay: TATP-OH glucuronidation, HLM positive control; settings: HLM 1 mg protein/mL, 10 µg/mL TATP-OH, 2 h
[11] = target: CYP3A4 (Homo sapiens, UniProt P08684); assay: Incubation with recombinant CYP3A4 bactosomes; settings: 10 min
[12] = Recombinant FMO study, insect cell control (rFMO control); settings: 10 min
[13] = target: UGT1A3 (Homo sapiens, UniProt P35503); assay: TATP-OH glucuronidation by recombinant UGT1A3; settings: rUGT1A3 500 µg protein/mL, 10 µg/mL TATP-OH, 2 h
[14] = target: FMO3 (Homo sapiens, UniProt P31513); assay: Incubation with recombinant FMO3 supersomes; settings: rFMO3, 10 µg/mL TATP-OH, 10 min
[15] = target: CYP2D6 (Homo sapiens, UniProt P10635); assay: Incubation with recombinant CYP2D6 bactosomes; settings: 10 min
[16] = Recombinant CYP study, E. coli control (rCYP control); settings: 10 min
[17] = target: T1, CYP2B6 (Homo sapiens, UniProt P20813); assay: Incubation with recombinant CYP2B6 bactosomes
[18] = target: UGT1A4 (Homo sapiens, UniProt P22310); assay: TATP-OH glucuronidation by recombinant UGT1A4; settings: rUGT1A4 500 µg protein/mL, 10 µg/mL TATP-OH, 2 h
[19] = TATP-OH glucuronidation, insect cell control (rUGT control); settings: 10 µg/mL TATP-OH, 2 h
[20] = target: UGT1A9 (Homo sapiens, UniProt O60656); assay: TATP-OH glucuronidation by recombinant UGT1A9; settings: rUGT1A9 500 µg protein/mL, 10 µg/mL TATP-OH, 2 h
[21] = target: CYP2E1 (Homo sapiens, UniProt P05181); assay: Incubation with recombinant CYP2E1 bactosomes; settings: 10 min
[22] = target: CYP2C9 (Homo sapiens, UniProt P11712); assay: Incubation with recombinant CYP2C9 bactosomes; settings: 10 min
[23] = target: UGT1A6 (Homo sapiens, UniProt P19224); assay: TATP-OH glucuronidation by recombinant UGT1A6; settings: rUGT1A6 500 µg protein/mL, 10 µg/mL TATP-OH, 2 h
[24] = target: T1, CYP2B6; assay: Bupropion hydroxylation (CYP2B6 probe) in HLM with chemical inhibitors or heat; settings: inhibitor preincubated in HLM for 30 min (1-ABT 1 mM, MMI 500 µM, TIC 100 µM); substrate bupropion 100 µM; no inhibitor = 100%
[25] = tested on: human liver microsomes; assay: Rate of TATP hydroxylation in human liver microsomes; settings: 100 µM TATP, 1 mg/mL liver microsomes, up to 10 min
[26] = tested on: human liver microsomes (HLM); assay: Metabolite identification, TATP incubation in human liver microsomes with NADPH; settings: HLM 1 mg/mL, 10 µg/mL TATP
[27] = tested on: glutathione S-transferase (GST); assay: Glutathione conjugation, TATP in HLM with GSH; settings: HLM with 5 mM GSH
[28] = at 20 ℃; cited from earlier work
[29] = Urine analysis of laboratory workers exposed to TATP vapor; settings: depending on the exposure level
[30] = tested on: dog liver microsomes (DLM); assay: Metabolite identification, TATP incubation in dog liver microsomes
[31] = tested on: canine microsomes; settings: cited from earlier work
[32] = tested on: rat liver microsomes (RLM); assay: Metabolite identification, TATP incubation in rat liver microsomes
[33] = tested on: human lung microsomes (HLungM); assay: Rate of TATP hydroxylation in human lung microsomes; settings: for Rate of TATP-OH formation: 100 µM TATP
[34] = tested on: UGT in HLM; assay: Glucuronidation, TATP in HLM with NADPH and UDPGA; settings: NADPH, 5.5 mM UDPGA, alamethicin
[35] = target: T1, CYP2B6; assay: Michaelis-Menten kinetics of TATP hydroxylation by rCYP2B6 and clearance scale-up

For CC1(C)OOC(C)(C)OOC(C)(CO)OO1, the “TATP-O-glucuronide formation, TATP-glucuronide/IS area count” value (“TATP-O-glucuronide formation” for short) [1] was 0.05 ± 0.03 area count relative to IS, the “Percent TATP-OH remaining” value ([2]; HLM, 10 µg/mL TATP-OH) was 69 ± 5% and the “In vitro intrinsic clearance (Clint) from half-life” value [3] was 42 µL/min/mg. For the same compound, the “Half-life (t1/2) by substrate depletion” value ([3]; NADPH, up to 60 min) was 16 min, the “TATP-O-glucuronide formation” value [4] was “not observed” and the “Percent TATP-OH remaining” value [5] was 78 ± 12%. For the same compound, the “Percent TATP-OH remaining” value ([6]; rCYP2C19, 10 µg/mL TATP-OH) was 76 ± 5%, the “Percent TATP-OH remaining” value [7] was 72 ± 7% and the “Percent TATP-OH remaining” value ([8]; rCYP1A2, 10 µg/mL TATP-OH) was 77 ± 2%. For the same compound, the “TATP-OH formation in 15 min, percent found” value [9] was 69 ± 4%, the “TATP-O-glucuronide formation” value [10] was 0.26 ± 0.02 area count relative to IS and the “Percent TATP-OH remaining” value ([11]; rCYP3A4, 10 µg/mL TATP-OH) was 78 ± 6%. The “Percent TATP-OH remaining” value ([12]; 10 µg/mL TATP-OH) was 69 ± 3%, the “TATP-O-glucuronide formation” value [13] was “not observed” and the “Percent TATP-OH remaining” value [14] was 78 ± 6%. For the same compound, the “Percent TATP-OH remaining” value ([15]; rCYP2D6, 10 µg/mL TATP-OH) was 76 ± 5%, the “Percent TATP-OH remaining” value ([16]; 10 µg/mL TATP-OH) was 76 ± 4% and the “Percent TATP-OH remaining” value ([17]; rCYP2B6, 10 µg/mL TATP-OH, 10 min) was 60 ± 3%. For the same compound, the TATP-OH depletion ([17]; rCYP2B6, 10 min) was 40%, the “TATP-O-glucuronide formation” value [18] was “not observed” and the “TATP-O-glucuronide formation” value [19] was “not observed”. For the same compound, the “TATP-O-glucuronide formation” value [20] was “not observed”, the “Percent TATP-OH remaining” value ([21]; rCYP2E1, 10 µg/mL TATP-OH) was 73 ± 5% and the “Percent TATP-OH remaining” value ([22]; rCYP2C9, 10 µg/mL TATP-OH) was 71 ± 8%. For the same compound, the “TATP-O-glucuronide formation” value [23] was “not observed”.

In the case of CC1(C)OOC(C)(C)OOC(C)(C)OO1, the “BUP-OH formation in 15 min, percent found” value [24] is reported as 62% and 62 ± 2%, the “Rate of TATP-OH formation” value [25] is reported as 0.425 ± 0.06 nmol/min/mg and the “[TATP-OH] formed from TATP” value ([2]; HLM 200 pmol CYP/mL, 10 µg/mL TATP) is reported as 1.47 ± 0.07 µM and 1.5 ± 0.1 µM. For the same compound, the “Metabolite formed from TATP” value [26] was “TATP-OH”, the Glutathione metabolite conjugates [27] was “no detectable glutathione metabolite conjugates” and the Partial pressure [28] was 4–7 Pa. The “[TATP-OH] formed from TATP” value ([6]; rCYP2C19 100 pmol CYP/mL, 10 µg/mL TATP) was “not observed”, the “[TATP-OH] formed from TATP” value ([8]; rCYP1A2 100 pmol CYP/mL, 10 µg/mL TATP) was “not observed” and the “TATP to TATP-O-glucuronide in vivo clearance time” value [29] was “within about a day”. For the same compound, the “[TATP-OH] formed from TATP” value ([11]; rCYP3A4 100 pmol CYP/mL, 10 µg/mL TATP) was “not observed”, the “[TATP-OH] formed from TATP” value ([12]; 10 µg/mL TATP) was “not observed” and the “Metabolite formed from TATP” value [30] was “TATP-OH”. For the same compound, the “Clearance of TATP in dogs” value [31] was 0.36 mL/min/mg protein, the “[TATP-OH] formed from TATP” value ([15]; rCYP2D6 100 pmol CYP/mL, 10 µg/mL TATP) was “not observed” and the “[TATP-OH] formed from TATP” value ([16]; 10 µg/mL TATP) was “not observed”. The “[TATP-OH] formed from TATP” value ([17]; rCYP2B6 100 pmol CYP/mL, 10 µg/mL TATP, 10 min) was 5.59 ± 0.3 µM and 5.6 ± 0.3 µM, the “Metabolite formed from TATP” value [32] was “TATP-OH” and the “Rate of TATP-OH formation” value ([33]; 1 mg/mL lung microsomes lot1410246) was “< LOQ”. The “Rate of TATP-OH formation” value ([33]; 1 mg/mL lung microsomes lot1710142) was “< LOQ”, the “TATP hydroxylation in the lungs” value ([33]; compared with liver microsomes) was “negligible” and the “Metabolite observed when incubated with UDPGA” value [34] was “TATP-O-glucuronide”. The “[TATP-OH] formed from TATP” value ([21]; rCYP2E1 100 pmol CYP/mL, 10 µg/mL TATP) was “not observed”, the “[TATP-OH] formed from TATP” value ([22]; rCYP2C9 100 pmol CYP/mL, 10 µg/mL TATP) was “not observed” and the “Clearance compared to common drugs” value [35] was “moderate”. The “Scale-up Clint per kilogram body weight” value ([35]; 0.088 nmol CYP2B6/mg protein, 45 mg protein/g liver, 20 g liver/kg) was 485 mL/min/kg, the “Vmax of TATP hydroxylation by CYP2B6” value ([35]; 50 nM rCYP2B6, 0.1 to 20 µM TATP, Michaelis-Menten) was 8.7 nmol/min/nmol CYP2B6 and the In vitro clearance ([35]; human, per mg microsomal protein) was 0.54 mL/min/mg protein. The Km ([35]; read-out: Km of TATP hydroxylation by CYP2B6, 50 nM rCYP2B6, 0.1 to 20 µM TATP, Michaelis-Menten) was 1.4 µM and the “In vivo intrinsic clearance (Cl), hepatic extrapolation” value ([35]; well-stirred model, Q = 21 mL/min/kg, no protein binding) was 20 mL/min/kg.
